The values below come from US12685777B2, “Compositions, systems, and methods for modulating a target gene” (The Board of Trustees of the Leland Stanford Junior …, priority 2022, dated 2026).

The target of test [1] is T1, BRD4^BD1 and BCL6^BTB (Homo sapiens, UniProt O60885+P41182, C67R/C84N/C8Q).
T1 construct: contains amino acids 5-129 with three mutations, C8Q, C67R, C84N; 6xHis-TEV (N, cleaved yes)
The test is described as follows: Isothermal calorimetry (ITC), ternary complex titration. Format: binding. The conditions noted are these: mean±s.d. of 3 replicates, read-out: KD BRD4:TCIP1:BCL6 (ternary complex affinity). The protocol:
Tag-cleaved version of BCL6^BTB and BRD4^BD1 were used for experiments, in a VP-ITC machine. For binary assays with TCIP1, 400 μM BCL6^BTB or BRD4^BD1 were titrated from the syringe into a cell containing 40 μM TCIP1. For the binary protein-protein ITC, 330 μM BCL6^BTB was titrated into 68 μM BRD4^BD1. For binary assays with JQ1 or Bl3812, 100 μM BCL6^BTB or 350 μM BRD4^BD1 was titrated from the syringe into a cell containing 5 μM Bl3812 or 20 μM JQ1. For the ternary complex assays, 200 μM BRD4^BD1 was incubated with 10 μM TCIP1 in the cell (20-fold excess, to drive saturation of the binary complex), and 100 μM BCL6^BTB was titrated from the syringe, at 310 rpm stirring at 25° C. in a buffer containing 10 mM HEPES pH 7.5, 200 mM NaCl, 5% glycerol, 1 mM TCEP, and matched DMSO % (never more than 0.4%) in the syringe and the cell. The first one or two injections and outliers from instrument noise were routinely excluded. Data was fit to a one-site model using MicroCal LLC Origin software.
(§1) One reason for a broadening of the hook effect is the formation of cooperative protein-protein interactions induced by the drug, such as a molecular glue. Hypothesizing that TCIP1 may induce a molecular glue interaction important for potency, isothermal calorimetry (ITC) binary and ternary titrations of TCIP1, BRD4^BD1, and BCL6^BTB were carried out.

The target of test [2] is T1, BRD4^BD1 and BCL6^BTB. Kind of test: Biolayer interferometry (BLI) of the ternary complex. Format: binding. The conditions noted are these: read-out: KD BRD4:TCIP1:BCL6 (ternary complex affinity). How it is done:
The tag-cleaved version of BRD4^BD1 and biotinylated BCL6^BTB were used for experiments, in a Gator Bio BLI machine. 50 μM of BRD4^BD1 was added to each well containing titrations of TCIP1 from 5.5 nM to 12 μM so that BRD4^BD1 would be in excess and drive binary BRD4^BD1:TCIP1 complex formation. 100 nM BCL6^BTB was loaded on the tip. Experiments were carried out at 25° C. After loading, association was carried out for 300s, dissociation for 300s, and a baseline for 30s. A TCIP1-only control was carried out for each concentration confirming that there was no binding between BCL6^BTB and TCIP1 on its own. […] Data was analyzed in GraphPad Prism with the association curves fit to the model “One-phase association” and the dissociation curves to the model “One-phase decay” to obtain kinetic parameters. The KD was obtained by fitting a “One-site binding” curve to the Span of each association curve vs. concentration of drug.
as §1

What is called Kd is the concentration at which binding is half-saturated. As to `CNC(=O)COc1cc2cc(Nc3nc(N4CCC(C(=O)NCCCCCCCNC(=O)C[C@@H]5N=C(c6ccc(Cl)cc6)c6c(sc(C)c6C)-n6c(C)nnc65)CC4)ncc3Cl)cc(OC)c2n(C)c1=O` [TCIP1], the Kd at BRD4^BD1 and BCL6^BTB [1] came to 340 nM; at BRD4^BD1 and BCL6^BTB [2], 316 ± 182 nM.
